B1: recombinant full-length human SAMHD1(1–626), wild type [human] / itself (parent)
chain: MQRADSEQPSKRPRCDDSPRTPSNTPSAEADWSPGLELHPDYKTWGPEQVCSFLRRGGFEEPVLLKNIRENEITGALLPCLDESRFENLGVSSLGERKKLLSYIQRLVQIHVDTMKVINDPIHGHIELHPLLVRIIDTPQFQRLRYIKQLGGGYYVFPGASHNRFEHSLGVGYLAGCLVHALGEKQPELQISERDVLCVQIAGLCHDLGHGPFSHMFDGRFIPLARPEVKWTHEQGSVMMFEHLINSNGIKPVMEQYGLIPEEDICFIKEQIVGPLESPVEDSLWPYKGRPENKSFLYEIVSNKRNGIDVDKWDYFARDCHHLGIQNNFDYKRFIKFARVCEVDNELRICARDKEVGNLYDMFHTRNSLHRRAYQHKVGNIIDTMITDAFLKADDYIEITGAGGKKYRISTAIDDMEAYTKLTDNIFLEILYSTDPKLKDAREILKQIEYRNLFKYVGETQPTGQIKIKREDYESLPKEVASAKPKVLLDVKLKAEDFIVDVINMDYGMQEKNPIDHVSFYCKTAPNRAIRITKNQVSQLLPEKFAEQLIRVYCKKVDRKSLYAARQYFVQWCADRNFTKPQDGDVIAPLITPQKKEWNDSTSVQNPTRLREASKSRVQLFKDDPM

Variants of: B1
Assay: size exclusion chromatography (tetramer peak height)
Conditions: with itself, SAMHD1 250 nm, flow rate 0.8 ml/min, read off a plot
[1] = dGTP 50 μm (first point of the 50–200 μm series)
[2] = dGTP 200 μm (last point of the 50–200 μm series)

Row | Variant | response [1] | response [2]
1 | chain 1 D137A | 0 mV | 0 mV
2 | chain 1 H206R D207N | 67 mV | 140 mV
3 | chain 1 L620A F621A | 26 mV | 100 mV
4 | chain 1 V618A Q619A | 15 mV | 67 mV

Reference: article PMC3624423
